Earlier results, collected in US6599541B1, “Composition for treatment of drug resistant bacterial infections and a method of treating drug resistant bacterial infections” (priority 1999, dated 2003).

Conditions: highest serum concentration reached after the maximum therapeutic dose in-vivo; cited from earlier work

Co-trimoxazole
break point: 4/76
